PubChem BioAssay (NCI)
This is a selection; strong and weak results do not stand in their true shares. Some structures have more than one record in an assay (separate samples or runs), and their calls can disagree. The source made the active and inactive calls. Rule as the data show it: active = growth inhibition above about 70%; inactive = the rest.

Test: NCI Yeast Anticancer Drug Screen. Data for the rad52 strain (AID 147);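 also: 0% = growth of vehicle-treated control cultures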
Settings: S. cerevisiae rad52 mutant growth inhibition, hits give high values
Description: Growth inhibition of yeast strains with defined genetic alterations is measured as a screen for potential anti-cancer activity. Selected strains with alterations in DNA damage repair or cell cycle control were exposed to compounds and growth inhibition was measured relative to vehicle treated controls. The strain used in this assay is rad52

Compound | growth inhibition (at 1.2 µM) | growth inhibition (at 3.7 µM) | growth inhibition (at 11.0 µM) | growth inhibition (at 33.0 µM) | growth inhibition (at 100.0 µM)
FC1(F)SC2C(C1(F)F)C1(Cl)C(Cl)=C(Cl)C2(Cl)C1(Cl)Cl (stereo not given) | inactive: 31% | active: 94% | active: 99% | active: 98% | active: 98%
O=[N+]([O-])c1cc([N+](=O)[O-])c2nsnc2c1 | inactive: 20% | active: 75% | active: 99% | active: 99% | active: 99%
O=C1OC(C(Cl)(Cl)Cl)Sc2ccccc21 (stereo not given) | inactive: 1% | inactive: 5% | inactive: 20% | inactive: 51% | active: 76%
CC(C)c1nc(Nc2ccccc2)n(P(=O)(N(C)C)N(C)C)n1 | inactive: 8% | inactive: 25% | inactive: 20% | inactive: 59% | active: 90%
COc1cccc(C[N+](C)(CCCl)CCCl)c1[N+](=O)[O-] | inactive: 2% | inactive: 5% | inactive: 25% | active: 78% | active: 94%
N#Cc1cc([N+](=O)[O-])cc([N+](=O)[O-])c1N | inactive: 7% | inactive: 17% | inactive: 31% | inactive: 49% | active: 70%
